IC50 data for two compounds are collected here from ChEMBL document CHEMBL1131583, “Structure-based design and synthesis of lipophilic 2,4-diamino-6-substituted quinazolines and their evaluation as inhibitors of dihydrofolate reductases and potential antitumor agents” (J Med Chem, 1998).

pIC50: −log10 of the molar value.

In general, pIC50 refers to −log10 of the IC50, conventionally taken in molar units.

The target of experiment [1] is T1, Bifunctional dihydrofolate reductase-thymidylate synthase (Toxoplasma gondii, UniProt Q07422).
T1 sequence (Q07422 whole entry): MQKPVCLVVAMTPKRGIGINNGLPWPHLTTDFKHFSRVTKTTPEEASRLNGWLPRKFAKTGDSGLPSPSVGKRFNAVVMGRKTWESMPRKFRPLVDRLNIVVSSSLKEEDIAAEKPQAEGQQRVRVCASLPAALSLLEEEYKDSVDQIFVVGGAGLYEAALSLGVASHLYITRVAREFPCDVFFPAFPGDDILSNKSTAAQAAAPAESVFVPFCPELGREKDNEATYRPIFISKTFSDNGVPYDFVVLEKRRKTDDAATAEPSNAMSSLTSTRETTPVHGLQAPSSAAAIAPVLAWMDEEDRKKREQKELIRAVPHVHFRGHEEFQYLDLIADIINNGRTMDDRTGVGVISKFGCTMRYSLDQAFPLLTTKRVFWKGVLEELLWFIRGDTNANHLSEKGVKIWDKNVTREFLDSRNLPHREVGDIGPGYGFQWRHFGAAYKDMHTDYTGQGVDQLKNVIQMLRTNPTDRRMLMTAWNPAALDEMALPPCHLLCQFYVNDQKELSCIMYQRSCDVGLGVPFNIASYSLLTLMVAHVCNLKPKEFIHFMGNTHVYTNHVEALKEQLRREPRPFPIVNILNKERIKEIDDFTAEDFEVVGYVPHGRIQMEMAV
As to the kind of experiment: Inhibition of recombinant Dihydrofolate reductase from Toxoplasma gondii (tgDHFR).

For experiment [2], the target named is T1, Bifunctional dihydrofolate reductase-thymidylate synthase.
In a further experiment the target is T2, Dihydrofolate reductase (Rattus norvegicus, UniProt Q920D2).
T2 sequence (Q920D2 whole entry): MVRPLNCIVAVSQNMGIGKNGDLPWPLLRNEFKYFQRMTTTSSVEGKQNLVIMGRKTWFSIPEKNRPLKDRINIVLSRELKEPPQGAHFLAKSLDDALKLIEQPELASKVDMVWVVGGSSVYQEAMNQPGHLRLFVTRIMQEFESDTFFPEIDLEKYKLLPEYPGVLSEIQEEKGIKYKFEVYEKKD
As to the kind of experiment: Inhibitory activity against Dihydrofolate reductase from rat liver (rlDHFR).

With `COc1cc(OC)c(CNc2ccc3nc(N)nc(N)c3c2)c(OC)c1`, the results for the pIC50 in experiment [1] and in experiment [2] were 6.12 and 6.02, respectively.

Consider `COc1ccc(OC)c(CN(C)c2ccc3nc(N)nc(N)c3c2)c1`, for which the pIC50 against Dihydrofolate reductase was 7.59.
